Experimental data reported in ChEMBL document CHEMBL1131435, “Biphenylsulfonamide endothelin antagonists: structure-activity relationships of a series of mono- and disubstituted analogues and pharmacology of the orally active endothelin antagonist 2'-amino-N- (3,4-dimethyl-5-isoxazolyl)-4'-(2-methylpropyl)[1, 1'-biphenyl]-2-sulfonamide (BMS-187308)” (J Med Chem, 1998).

By UniProt entry, the sequences of proteins in these tests, tags left out.
UniProt P26684, whole entry: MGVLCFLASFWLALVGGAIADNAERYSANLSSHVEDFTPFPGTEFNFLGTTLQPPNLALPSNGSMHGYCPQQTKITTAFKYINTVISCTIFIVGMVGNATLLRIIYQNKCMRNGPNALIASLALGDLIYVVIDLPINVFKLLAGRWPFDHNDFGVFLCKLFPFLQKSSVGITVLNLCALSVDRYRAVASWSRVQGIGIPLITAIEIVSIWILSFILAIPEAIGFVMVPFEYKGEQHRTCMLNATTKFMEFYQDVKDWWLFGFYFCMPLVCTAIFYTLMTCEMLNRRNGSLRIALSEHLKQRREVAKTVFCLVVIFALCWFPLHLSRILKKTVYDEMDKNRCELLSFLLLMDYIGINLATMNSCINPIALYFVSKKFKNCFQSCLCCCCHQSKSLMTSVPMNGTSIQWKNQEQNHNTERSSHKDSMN

Target: Endothelin-1 receptor (Rattus norvegicus, UniProt P26684)
Test: Ability to inhibit binding of [125I]ET1 to membranes prepared from A10 rat thoracic aorta smooth muscle Endothelin A receptor
Type: tissue-based

Q: Which Ki does the source give for Cc1noc(NS(=O)(=O)c2ccccc2N)c1C here?
A: The Ki was 5.9 µM.
